The target in test [1] is Transcriptional enhancer factor TEF-1 (Homo sapiens, UniProt P28347). The settings on record: dose 0.78-100 µM, time 24.0 hrs.
Test [2] concerns the target Transcriptional enhancer factor TEF-5 (Homo sapiens, UniProt Q99594). The settings on record: dose 0.78-100 µM, time 24.0 hrs.
Test [3] deals with T1, Transcriptional enhancer factor TEF-3 (Homo sapiens, UniProt Q15561). The settings on record: dose 0.78-100 µM, time 24.0 hrs.
The target of test [4] is Transcriptional enhancer factor TEF-4 (Homo sapiens, UniProt Q15562). To be noted: dose 0.78-100 µM, time 24.0 hrs.
Test [5] has as its system Transcriptional enhancer factor TEF-3 (Homo sapiens), Q15561 [C367S]. Briefly: Displacement of FAM- labeled YAP1 peptide (60 to 99 residues) from human TEAD4 (217 to 434 residues) C367S mutant expressed in Escherichia coli BL21 (DE3) cells at 0.2 to 100 uM incubated for 24 hrs by fluorescence polarization-based competitive binding assay. To be noted: dose 0.2-100 µM. (In general: Polarisation of emitted light reports the rotation of a fluorescent probe.)

By UniProt entry, the sequences of proteins in these tests, tags left out.
UniProt P28347, whole entry: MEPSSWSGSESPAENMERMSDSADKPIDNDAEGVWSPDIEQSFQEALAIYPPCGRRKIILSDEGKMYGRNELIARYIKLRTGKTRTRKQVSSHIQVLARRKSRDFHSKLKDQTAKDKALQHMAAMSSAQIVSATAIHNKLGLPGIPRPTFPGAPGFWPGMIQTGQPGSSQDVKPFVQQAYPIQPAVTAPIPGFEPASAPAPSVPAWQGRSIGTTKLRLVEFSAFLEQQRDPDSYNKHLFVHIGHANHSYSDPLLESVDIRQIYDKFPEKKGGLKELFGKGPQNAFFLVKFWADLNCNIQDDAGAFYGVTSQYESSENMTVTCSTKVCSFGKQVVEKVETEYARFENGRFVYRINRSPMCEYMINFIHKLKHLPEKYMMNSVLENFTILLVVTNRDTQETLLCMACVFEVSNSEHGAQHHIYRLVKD
UniProt Q99594, whole entry: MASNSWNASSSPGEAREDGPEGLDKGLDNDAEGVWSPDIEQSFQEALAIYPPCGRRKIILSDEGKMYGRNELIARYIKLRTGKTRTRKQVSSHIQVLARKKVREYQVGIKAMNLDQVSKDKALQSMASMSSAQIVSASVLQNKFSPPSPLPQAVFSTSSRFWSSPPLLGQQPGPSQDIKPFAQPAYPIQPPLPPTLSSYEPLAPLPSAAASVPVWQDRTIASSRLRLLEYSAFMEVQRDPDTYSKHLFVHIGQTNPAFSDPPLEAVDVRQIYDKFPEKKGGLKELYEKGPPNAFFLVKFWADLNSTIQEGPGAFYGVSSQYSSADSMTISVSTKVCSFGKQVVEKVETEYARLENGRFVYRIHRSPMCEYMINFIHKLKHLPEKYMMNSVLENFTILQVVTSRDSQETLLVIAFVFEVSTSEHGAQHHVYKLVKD
UniProt Q15561, whole entry: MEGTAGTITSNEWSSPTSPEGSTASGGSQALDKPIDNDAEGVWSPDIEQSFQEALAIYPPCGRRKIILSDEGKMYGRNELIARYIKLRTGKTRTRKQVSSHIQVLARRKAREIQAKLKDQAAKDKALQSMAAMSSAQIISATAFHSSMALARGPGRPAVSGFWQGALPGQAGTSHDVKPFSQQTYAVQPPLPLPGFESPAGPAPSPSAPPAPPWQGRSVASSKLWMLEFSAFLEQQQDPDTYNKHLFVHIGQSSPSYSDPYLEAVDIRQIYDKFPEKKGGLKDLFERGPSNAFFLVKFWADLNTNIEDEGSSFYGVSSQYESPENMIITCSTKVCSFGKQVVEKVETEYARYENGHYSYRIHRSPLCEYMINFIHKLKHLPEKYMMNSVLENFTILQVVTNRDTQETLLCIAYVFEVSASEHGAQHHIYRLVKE
UniProt Q15561, whole entry C367S: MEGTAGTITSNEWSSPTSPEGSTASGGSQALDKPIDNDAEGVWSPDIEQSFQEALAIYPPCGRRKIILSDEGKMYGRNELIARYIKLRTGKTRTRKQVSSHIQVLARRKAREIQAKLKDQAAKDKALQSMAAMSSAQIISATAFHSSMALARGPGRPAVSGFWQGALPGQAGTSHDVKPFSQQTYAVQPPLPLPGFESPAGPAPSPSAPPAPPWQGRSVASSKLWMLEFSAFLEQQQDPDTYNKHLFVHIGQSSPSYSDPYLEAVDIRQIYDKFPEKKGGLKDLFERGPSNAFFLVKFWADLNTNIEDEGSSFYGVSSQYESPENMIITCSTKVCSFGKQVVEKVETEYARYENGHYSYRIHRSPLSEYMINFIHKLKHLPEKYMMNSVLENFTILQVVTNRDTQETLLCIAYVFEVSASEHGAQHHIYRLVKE
UniProt Q15562, whole entry: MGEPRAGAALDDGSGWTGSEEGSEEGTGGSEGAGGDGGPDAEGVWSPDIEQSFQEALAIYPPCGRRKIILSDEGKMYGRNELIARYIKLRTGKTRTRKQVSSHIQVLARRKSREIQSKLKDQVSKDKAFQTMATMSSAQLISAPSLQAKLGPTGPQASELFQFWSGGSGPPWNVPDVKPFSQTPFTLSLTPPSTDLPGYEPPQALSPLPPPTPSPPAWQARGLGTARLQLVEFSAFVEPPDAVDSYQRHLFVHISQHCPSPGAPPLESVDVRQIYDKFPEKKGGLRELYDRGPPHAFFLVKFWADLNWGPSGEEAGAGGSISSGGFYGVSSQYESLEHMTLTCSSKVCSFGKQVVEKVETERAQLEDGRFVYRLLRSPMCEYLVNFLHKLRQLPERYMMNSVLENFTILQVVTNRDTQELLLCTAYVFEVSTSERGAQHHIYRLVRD

The target in test [6] is T1, Transcriptional enhancer factor TEF-3. Briefly: Inhibition of TEAD4 (unknown origin) transfected in human HEK293 cells co-transfected with renilla plasmid assessed as maximum inhibition of transcriptional activity at 0.01 to 100 uM incubated for 24 hrs by dual Glo-luciferase reporter assay relative to control. Type of test: cell-based. To be noted: dose 0.01-100 µM. A general note: A reporter such as luciferase makes a cellular process visible.

Drawing on ChEMBL document CHEMBL5316282, “Small-Molecule Cyanamide Pan-TEAD·YAP1 Covalent Antagonists” (J Med Chem, 2023), this text covers T1/2, inhibition and Imax for eight compounds.

Molecules are shown by their SMILES. The source made the active and inactive calls. The calls are words filed in the database; no cut-off is given here.

Turning to `N#CN1Cc2ccc(F)c(Nc3cccc(C(F)(F)F)c3)c2C1`, the values for the T1/2 in test [1] and in test [2] were 3.6 min and 1.9 min, respectively.
Turning to `N#CN1Cc2cccc(Nc3cccc(C(F)(F)F)c3)c2C1`, the figures for the T1/2 in test [3], in test [1] and in test [2] were 3.9 min, 7.3 min and 4.8 min, respectively.
For `N#CN1Cc2cccc(Nc3ccccc3C(F)(F)F)c2C1`, the T1/2 in test [3] worked out at 99 min; in test [1], 73.7 min; in test [2], 26.7 min; in test [4] it was 4.8 min.
As for `COc1ccc2c(c1Nc1cccc(C(F)(F)F)c1)CN(C#N)C2`, the T1/2 was 7.5 min in test [3], 990 min in test [1], 21.8 min in test [2] and 3.3 min in test [4].
As to `N#CN1Cc2cccc(Nc3ccc(C(F)(F)F)cc3)c2C1`, in test [5], the inhibition result is “inactive”. In test [6], the Imax was 96.9%. The T1/2 in test [3] came out at 301 min; in test [1], 4.9 min; in test [2], 5.1 min; in test [4], 6.9 min.
Turning to `N#CN1CC2CCCC(Nc3cccc(C(F)(F)F)c3)C2C1` (centres undefined), the T1/2 in test [3] amounted to 347 min; in test [1] it was 1160 min; in test [2], 365 min; in test [4], 117 min.
Turning to `N#CN1CC2CCCC(Nc3ccc(C(F)(F)F)cc3)C2C1` (centres undefined), the inhibition entry in test [5] is “inactive”. Further, in test [6], the Imax entry is “inactive”.
With `N#CN1CC2CCCC(Nc3ccccc3C(F)(F)F)C2C1` (centres undefined), the inhibition result in test [5] was “inactive”. The Imax result in test [6] is “inactive”. The values for the T1/2 in test [3] and in test [4] were 1050 min and 92.4 min, respectively.
